Measured values as given in patent publication US20160340403A1 (published 2016).
Positions count from the first letter of the chain named.

T1: MART1 peptide on HLA-A*02:01 (human)
T1 peptide: AAGIGILTV

B1: Clone 7E (SIG35α with clone 7E TCRβ) (TCR)
Valpha: QKEVEQNSGPLSVPEGAIASLNCTYSDRGSQSFFWYRQYSGKSPELIMFIYSNGDKEDGRFTAQLNKASQYVSLLIRDSQPSDSATYLCAVSIGFGNVLHCGSGTQVIVLP
beta TRBV27 TRBJ1-3 CDR3: CASSRDFGNTIYF
B2: Clone 9I (SIG35α with clone 9I TCRβ) (TCR)
Valpha: B1 Valpha
beta TRBV5-1 TRBJ1-1 CDR3: CASSLAMGATEAFF
B3: Clone 6X (SIG35α with clone 6X TCRβ) (TCR)
Valpha: B1 Valpha
beta TRBV2 TRBJ2-3 CDR3: CATGVTDTQYF
B4: Clone 6B (SIG35α with clone 6B TCRβ) (TCR)
Valpha: B1 Valpha
beta TRBV2 TRBJ2-1 CDR3: CASSEVAWQFF
B5: Clone 11C (SIG35α with clone 11C TCRβ) (TCR)
Valpha: B1 Valpha
beta TRBV2 TRBJ1-2 CDR3: CASDEGFGYTF
B6: Clone 794 (SIG35α with clone 794 TCRβ) (TCR, V domains shown)
Valpha: B1 Valpha
Vbeta: EAQVTQNPRYLITVTGKKLTVTCSQNMNHEYMSWYRQDPGLGLRQIYYSMNVEVTDKGDVPEGYKVSRKEKRNFPLILESPSPNQTSLYFCASSLLGDYGYTFGSGTRLTVV
B7: Clone 830 (SIG35α with clone 830 TCRβ) (TCR, V domains shown)
Valpha: B1 Valpha
Vbeta: B6 Vbeta with L96G, D98A, G100E, Y101Q, T102Y, S105P, V112T
B8: Clone 8H (SIG35α with clone 8H TCRβ) (TCR)
Valpha: B1 Valpha
beta TRBV27 TRBJ2-7 CDR3: CASSPLGAMEQYF
B9: Clone 7Q (SIG35α with clone 7Q TCRβ) (TCR, V domains shown)
Valpha: B1 Valpha
Vbeta: EAQVTQNPRYLITVTGKKLTVTCSQNMNHEYMSWYRQDPGLGLRQIYYSMNVEVTDKGDVPEGYKVSRKEKRNFPLILESPSPNQTSLYFCASSPYMMNTEAFFGQGTRLTVV
B10: Clone 9J (SIG35α with clone 9J TCRβ) (TCR)
Valpha: B1 Valpha
beta TRBV5-1 TRBJ1-2 CDR3: CASSWTGDGYTF
B11: Clone 1086 (SIG35α with clone 1086 TCRβ) (TCR)
Valpha: B1 Valpha
beta TRBV27 TRBJ1-2 CDR3: CASSLHGPGGYTF
B12: Clone 788 (SIG35α with clone 788 TCRβ) (TCR)
Valpha: B1 Valpha
beta TRBV27 TRBJ2-7 CDR3: CASGPSYEQYF
B13: Clone 523 (SIG35α with clone 523 TCRβ) (TCR)
Valpha: B1 Valpha
beta TRBV27 TRBJ2-7 CDR3: CASGSYEQYF
B14: Clone 413 (SIG35α with clone 413 TCRβ) (TCR)
Valpha: B1 Valpha
beta TRBV27 TRBJ1-4 CDR3: CASSVFGGDMGEKLFF

Molecular target: T1, MART1 peptide on HLA-A*02:01
Assay: IL-2 ELISPOT; Jurkat 76 transfectants without CD8; T2 cells pulsed with graded concentrations of MART1 27-35 peptide; full-length, on cells

| Binder | EC50 of peptide [µg/mL] |
| --- | --- |
| B1 | 102 |
| B2 | 140 |
| B3 | 150 |
| B4 | 600 |
| B5 | 2460 |

Molecular target: T1, MART1 peptide on HLA-A*02:01
Assay: cytokine release

| Binder | binding result |
| --- | --- |
| B6 | recognises |
| B7 | recognises |
| B8 | recognises |
| B9 | recognises |
| B10 | recognises |

Molecular target: T1, MART1 peptide on HLA-A*02:01
Assay: IL-2 ELISPOT; Jurkat76 transfectants without CD8; T2 cells pulsed with graded concentrations of MART1 27-35 peptide; full-length, on cells

| Binder | EC50 of peptide [nM] |
| --- | --- |
| B11 | 2400 |
| B12 | 2900 |

Molecular target: T1, MART1 peptide on HLA-A*02:01
Assay: IL-2 ELISPOT; Jurkat 76/CD8αβ transfectants; T2 cells pulsed with graded concentrations of MART1 27-35 peptide; full-length, on cells

| Binder | EC50 of peptide [µg/mL] |
| --- | --- |
| B2 | 97 |
| B3 | 83 |
| B4 | 120 |
| B5 | 292 |

Molecular target: T1, MART1 peptide on HLA-A*02:01
Assay: IL-2 ELISPOT; Jurkat76/CD8αβ transfectants; T2 cells pulsed with graded concentrations of MART1 27-35 peptide; full-length, on cells

| Binder | EC50 of peptide [nM] |
| --- | --- |
| B11 | 630 |
| B12 | 570 |
| B13 | 2700 |
| B14 | 10000 |
